Literature values, collected in PMC8348686, “The Pharmacological Profile of Second Generation Pyrovalerone Cathinones and Related Cathinone Derivative” (International Journal of Molecular Sciences, 2021).

By UniProt entry, the sequences of proteins in these tests, tags left out. Residues count along the entry.
UniProt P28335, 33-458: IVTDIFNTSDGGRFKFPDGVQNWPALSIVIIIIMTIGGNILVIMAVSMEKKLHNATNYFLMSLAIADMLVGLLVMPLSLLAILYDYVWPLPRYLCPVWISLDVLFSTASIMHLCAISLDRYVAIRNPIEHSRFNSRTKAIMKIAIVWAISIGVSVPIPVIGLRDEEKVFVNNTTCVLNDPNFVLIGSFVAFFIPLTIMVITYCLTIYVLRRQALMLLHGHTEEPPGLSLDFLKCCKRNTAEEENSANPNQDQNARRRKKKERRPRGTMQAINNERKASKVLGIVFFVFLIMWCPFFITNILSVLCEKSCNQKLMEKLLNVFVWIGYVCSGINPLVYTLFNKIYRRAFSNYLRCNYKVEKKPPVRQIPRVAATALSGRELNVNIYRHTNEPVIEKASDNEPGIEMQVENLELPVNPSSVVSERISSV

Target: T1, h5-HT2C receptor (Homo sapiens, UniProt P28335)
T1 construct: expressed in transfected cells; host or cells: HEK293 cell preparations
Conditions: [3H]-Mesulgerine; ref Luethi, Kolaczynska et al. (2019); read-out: h5-HT2C Receptor Binding Ki ± SD; cited from earlier work

CNC(C)Cc1ccc2c(c1)OCO2 (stereo not shown) [MDMA, 3,4-methylenedioxymethamphetamine, reference compound]
Ki: 4.4 ± 0.8 µM
